Assay outcomes as filed in PubChem.
Compounds with a hit are over-represented: about 13% of the library has one in this group of screens.
G9a block: inhibitors of human histone lysine methyltransferase G9a. Q96KQ7. G9a H3K9 monomethylation, AlphaScreen, 2 h. Potency, µM (doses to about 102 µM), without a hit: at the top dose activity, negative = inhibition, most hits filed as inhibitors. 350,000 compounds, 8.8% hits. AID 504332; further: potency means the concentration at half of the fitted maximal effect; on the % scale 0 is the no-effect control and ±100 the full control effect; nearly all actives have a fitted effect of over 75% in size
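AlphaScreen detection with an anti-monomethyl H3K9 antibody quantified product after a 2 h room-temperature reaction containing 500 nM biotinylated H3K9 peptide, 20 µM SAM and 20 nM enzyme, which had been preincubated 15 min with compound.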
LMNA splice mod: modulators of lamin A splicing. HeLa LMNA splicing GFP/RFP minigene ratio, 48 h. Potency, µM (series often up to 46.1 µM), for inactives: at the top dose ratio change, negative = inhibition, most hits filed as inhibitors. 200,000 compounds, 0.01% hits. AID 1487; active means well fitted inhibition curve with a large enough effect in the signal ratio, with a control signal flat, not every such curve was filed as active; inconclusive means small, poorly fitted or top-dose-only effect, or effect the other way, or a change in a side signal; the % refers to the signal ratio; further: potency means the concentration at half of the fitted maximal effect; on the % scale 0 is the no-effect control and ±100 the full control effect
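S3 HeLa stable clones carrying a lamin A-EGFP splicing minigene plus DsRed2 were seeded at 600 cells/well in Opti-MEM with 2% FBS, pin-dosed and incubated 48 h at 37°C. Acumen cytometry (488 nm) gave the GFP/RFP total-intensity ratio.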
miR-21 reporter: miR-21 reporter, rising signal | HeLa miR-21 FLuc reporter, luciferase, 48 h | Potency, µM (top dose mostly 38.3 µM), inactives show at the top dose reporter change, positive = more light | 340,000 tested, under 10 active | AID 2288; active = well fitted rising curve with a large enough effect; inconclusive = small, poorly fitted or top-dose-only effect; inactive = no such curve, though single readings can be large or run the other way;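 further: % of control where 0% means no effect; miR-21 action dims this reporter so a rising signal means less miR-21 action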
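HeLa miR-21-FLuc reporter line, endogenous miR-21; 2000 cells/well in DMEM/10% FBS; compound titration up to ~40uM final, 48 h, 37 degree Celsius; luciferase detection reagent, 15 min lysis, CCD luminescence.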
JMJD2E inh: JMJD2E (human) inhibition. Potency, µM (titrated, usually from 57.1 µM), inactives show at the highest dose activity change, negative = inhibition, most hits filed as inhibitors. AID 2147. JMJD2E catalytic domain, FDH-coupled NADH fluorescence (FDH is formaldehyde dehydrogenase). B2RXH2. 230,000 compounds, 1.6% hits; active means well fitted inhibition curve with a large enough effect, not every such curve was filed as active; inconclusive means small, poorly fitted or top-dose-only effect, or another doubt; inactive means no such curve, though single readings can be large or run the other way;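 further: potency means the concentration at half of the fitted maximal effect; 0% = wells with enzyme and -100% = buffer wells without enzyme; nearly all actives have a fitted effect of over 50% in size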
ALDH1A1 block: inhibitors of human aldehyde dehydrogenase 1A1 | 220,000 compounds, 7.3% hits | Purified ALDH1A1, NADH fluorescence, propionaldehyde substrate | Potency, µM (doses to about 75.3 µM), for the others: at the top dose activity, negative = inhibition, actives largely listed as inhibitors | P00352; active means well fitted inhibition curve with a large enough effect, not every such curve was filed as active; inconclusive means small, poorly fitted or top-dose-only effect, or another doubt; inactive means no such curve, though single readings can be large or run the other way;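 further: potency means the concentration at half of the fitted maximal effect; plate controls were no enzyme wells and a reference inhibitor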
Sfp inh: qHTS Assay for Inhibitors of Bacillus subtilis Sfp phosphopantetheinyl transferase (PPTase) | 4'-phosphopantetheinyl transferase ffp (Bacillus subtilis), Q9F4F7 | AID 1490, 2009 | actives 3.5% (n = 310,000) | Biochemical Sfp PPTase activity, qHTS | Potency, µM, for inactives: max response, negative = inhibition, most hits filed as inhibitors; active = well fitted inhibition curve with a large enough effect; inconclusive = small, poorly fitted or top-dose-only effect, or another doubt; inactive = no such curve, though single readings can be large or run the other way;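 also: the enzyme is Sfp with the accession as filed and its product quenches rhodamine fluorescence; potency is read from the fitted curve at half-maximal effect; 0% = enzyme reaction without inhibitor and -100% = no enzyme wells; top concentration of the series not given in the record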
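With Hepes-Na pH 7.6 buffer containing 10 mM MgCl2, Sfp (15 nM) modified BHQ-2-YbbR (12.5 uM) using rhodamine-CoA (5 uM). Two reads 30 minutes apart at 525/598 nm yielded each well's rate.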
The depositor's hits bear a star; ? = inconclusive; . = no result; [ ] = dose if it differs, or a comment. Unless noted, the call rests on the fitted dose curve; in most records, active means well fitted curve in the direction sought with a large enough effect; inconclusive means small, poorly fitted or top-dose-only effect, or another doubt; inactive means no such curve, though single readings can be large; an effect the other way counts as inactive or inconclusive.

Key to letters: A = G9a block; B = LMNA splice mod; C = miR-21 reporter; D = JMJD2E inh; E = ALDH1A1 block; F = Sfp inh
Cc1ccc(-c2cn(-c3ccccc3F)c(=S)[nH]2)cc1
  A = 28.2µM*; B = .; C = -44.2%; D = .; E = .; F = 0.5%
CCOc1ccc(-c2cn(-c3ccccc3OC)c(=S)[nH]2)cc1
  A = ?; B = .; C = 9.5%; D = .; E = .; F = 3.1%
Cc1ccc(N2CCN(C(=O)CCc3c(C)nc4ncnn4c3C)CC2)c(C)c1
  A = -15.8%[59 µM]; B = .; C = 3.1%; D = .; E = .; F = .
COc1cccc(Nc2ncc3nc(-c4cc(F)cc(F)c4)c(=O)n(C4CC4)c3n2)c1
  A = -1.7%[12.7 µM]; B = .; C = .; D = .; E = 15.9%; F = 11.0%
CC[C@@H]1[C@H]2CCCC(=O)N3CC[C@@H](C[C@@H]1OC(=O)Nc1ccccc1)[C@@H]23
  A = 11.9%; B = .; C = 0.5%; D = .; E = .; F = -0.7%
Cc1cccc(-n2cc(-c3ccccc3)c3c(NC(C)C)ncnc32)c1
  A = -27.8%[59 µM]; B = ?; C = 0.4%; D = .; E = .; F = .
COc1cccc(-c2cn(-c3cccc(C(F)(F)F)c3)c(=S)[nH]2)c1
  A = 22.7%[0.501 µM]; B = .; C = 5.0%; D = .; E = .; F = -9.9%
Cc1cccc(-n2cc(-c3ccccc3)[nH]c2=S)c1
  A = 25.1µM*; B = .; C = -10.1%; D = .; E = .; F = -18.9%
COc1ccc(-n2cc(-c3ccccc3)[nH]c2=S)cc1
  A = 1.58µM*; B = -7.9%; C = -28.1%; D = -20.4%; E = -4.2%; F = -26.2%
COc1cc(CN2CCc3ccc(NC(=O)CCc4ccccc4OC)cc3C2)ccc1O
  A = 44.7µM*; B = .; C = -0.8%; D = .; E = .; F = -3.8%
CC(=O)Nc1ccc(NC(=O)c2ccc(CN3CCc4ccccc4C3)cc2)cc1
  A = 12.1%; B = .; C = -2.6%; D = .; E = .; F = 13.0%
COc1cccc(CN2CCc3ccc(NC(=O)CCc4ccc(C)cc4)cc3C2)c1O
  A = 39.8µM*; B = .; C = 3.3%; D = .; E = .; F = 4.5%
COC(=O)c1ccc(CN2CCc3ccc(NC(=O)c4ccncc4)cc3C2)cc1
  A = 50.1µM*; B = .; C = 21.6%; D = .; E = .; F = 15.9%
COCCCN1C(=O)C(=O)/C(=C(/O)c2ccc(S(=O)(=O)N3CCOCC3)cc2)C1c1cccc(Cl)c1 (stereo unspecified)
  A = ?; B = .; C = -0.7%; D = .; E = .; F = 5.7%
CCOC(=O)OCC1OC(C#Cc2ccc(C(C)(C)C)cc2)C=CC1OC(=O)OCC (stereo unspecified)
  A = .; B = .; C = .; D = .; E = -8.4%[13.5 µM]; F = 9.9%

Reprinted from the part before: 2 compounds, then new ones.
Key to letters: A = G9a block; B = LMNA splice mod; C = miR-21 reporter; D = JMJD2E inh; E = ALDH1A1 block; F = Sfp inh
COCCCN1C(=O)C(=O)/C(=C(/O)c2ccc(S(=O)(=O)N3CCOCC3)cc2)C1c1cccc(Cl)c1 (stereo unspecified)
  A = ?; B = .; C = -0.7%; D = .; E = .; F = 5.7%
CCOC(=O)OCC1OC(C#Cc2ccc(C(C)(C)C)cc2)C=CC1OC(=O)OCC (stereo unspecified)
  A = .; B = .; C = .; D = .; E = -8.4%[13.5 µM]; F = 9.9%
COc1cccc(-n2cc(C(=O)Nc3ccccc3C(N)=O)c3ccccc3c2=O)c1
  A = -32.8%[59 µM]; B = -8.1%[46 µM]; C = -17.5%; D = .; E = .; F = .
Cc1ccc(S(=O)(=O)/N=C(\Nc2cccc(C)c2)Nc2nc(C)cc(C)n2)cc1
  A = 22.5%[59 µM]; B = 2.1%; C = -1.8%; D = -4.7%; E = 0.398µM*; F = 12.4%
Cc1ccc(C(=O)Nc2ccccc2C(=O)OCc2cc(=O)n3nc(C4CC4)sc3n2)cc1
  A = 2.2%[12.7 µM]; B = 13.6%[46 µM]; C = -7.6%; D = .; E = .; F = .
O=C(NCc1ccco1)c1cc(-c2ccccc2)c(N2CCOCC2)s1
  A = ?; B = 6.2%; C = -0.3%; D = -16.5%; E = ?; F = -2.4%
O=C(O)c1cc(-c2ccccc2)c(N2CCOCC2)s1
  A = 79.4µM*; B = 3.6%; C = -0.4%; D = 8.7%; E = 2.8%; F = 16.5%
Cc1ccc(C)c(N2CC(=O)N(c3cc(C)ccc3C)CC2=O)c1
  A = 32.1%[12.7 µM]; B = -12.6%; C = -4.6%; D = 3.8%; E = 7.9%; F = 14.8%
Cc1ccc(-n2cc[nH]c2=S)c(C)c1
  A = 8.91µM*; B = -6.7%[46 µM]; C = 2.1%; D = -5.9%; E = ?; F = -64.7%
Cc1ccc(-n2c(-c3ccncc3)n[nH]c2=S)c(C)c1
  A = .; B = 11.7%[46 µM]; C = -4.4%; D = 5.9%; E = -13.0%; F = -26.3%
Cc1ccc(C)c(-n2cc[nH]c2=S)c1
  A = 2µM*; B = -10.2%; C = -0.9%; D = -7.6%; E = ?; F = ?
Cc1cc(C)cc(-n2cc[nH]c2=S)c1
  A = 0.794µM*; B = 5.4%; C = -3.3%; D = 4.8%; E = -1.3%; F = 15.7%
Cc1ccc(NC(=O)C2CCC(CNS(=O)(=O)c3csc(C(N)=O)c3)CC2)cc1Cl (stereo unspecified)
  A = 8.1%[59 µM]; B = .; C = -20.2%; D = .; E = .; F = .
CC(=O)n1c2c(c3ccccc31)OC(N)=C(C#N)C2c1cccc(Cl)c1Cl (stereo unspecified)
  A = 44.7µM*; B = ?; C = -2.6%; D = ?; E = 5.5%; F = -2.8%
N#CC1=C(N)OC2=C(CCc3ccccc32)C1c1ccccc1Cl (stereo unspecified)
  A = -20.3%; B = ?; C = 6.1%; D = ?; E = ?; F = -25.1%
O=C1CSC2(N1)C1CC3CC(C1)CC2C3 (stereo unspecified)
  A = 15.0%[59 µM]; B = .; C = -0.8%; D = 8.8%; E = .; F = -2.4%
C1CSC2(N1)C1CC3CC2CC(C1)C31NCCS1 (stereo unspecified)
  A = ?; B = 13.9%; C = 1.8%; D = -0.2%; E = 10.0%; F = 20µM*

Single values from above.
Sfp inh with CCOC(=O)OCC1OC(C#Cc2ccc(C(C)(C)C)cc2)C=CC1OC(=O)OCC (stereo unspecified) reads 9.9%
miR-21 reporter with Cc1cccc(-n2cc(-c3ccccc3)c3c(NC(C)C)ncnc32)c1 reads 0.4%
Sfp inh with CCOc1ccc(-c2cn(-c3ccccc3OC)c(=S)[nH]2)cc1 reads 3.1%

The list continues.
| Compound | G9a block | LMNA splice mod | miR-21 reporter | JMJD2E inh | ALDH1A1 block | Sfp inh |
| --- | --- | --- | --- | --- | --- | --- |
| COc1ccccc1N1CCN(C2CCCN(C(=O)CN3CCCC3=O)C2)CC1 (stereo unspecified) | ? | . | -2.1% | . | . | 6.9% |
| CSCCC(NC(=O)c1ccco1)C(=O)Nc1ccc(C)c(S(=O)(=O)N2CCOCC2)c1 (stereo unspecified) | 18.9%[0.501 µM] | . | . | . | . | . |
| CC(C)n1nc(C(=O)NNC(=O)c2ccc(OC(F)F)cc2)c2ccccc2c1=O | 3.16µM* | . | . | . | . | . |
| Cc1nc(N(C)C)c2sc(=S)n(Cc3ccccc3)c2n1 | 12.4%[12.7 µM] | . | 0.8% | -0.2% | 6.31µM* | 1.9% |
| CCN(CC)c1nc(C)nc2c1sc(=S)n2C | 0.8% | . | -4.3% | -3.2% | -4.3% | 4.7% |
| Oc1ccc(-c2cn3c(n2)SCC3)cc1O | 1.12µM* | 3.8% | -22.3% | 12.6µM* | 6.31µM* | 17.8µM* |
| Brc1ccc(-c2cn3c(n2)SCC3)cc1 | . | . | -35.6% | -4.4% | 2.6% | 2.0% |
| Oc1ccc(-c2cn3c(n2)SCC3)cc1 | 8.91µM* | -7.9% | -18.0% | -2.4% | -0.5% | -2.1% |
| Fc1ccccc1/C=N/Nc1nc2ccccc2o1 | 25.7% | . | -50.4% | . | . | ? |
| CC(=O)c1ccc(NC(=O)CSc2nccn2C2CCCC2)cc1 | -4.5%[59 µM] | 19.6%[46 µM] | -1.2% | . | . | . |
| Cc1ccc(Oc2c(C(N)=O)cc([N+](=O)[O-])cc2[N+](=O)[O-])cc1 | ? | ? | ? | -5.9% | ? | ? |
| C=CCn1c(C)cc(C(=O)COC(=O)c2cncc(Br)c2)c1C | 3.16µM* | . | . | . | . | . |
| C=CCn1c(C)cc(C(=O)CSc2nc(N)cc(N)n2)c1C | 31.6µM* | -16.7%[46 µM] | -18.7% | 3.0% | 0.9% | -6.2% |
| Cc1ccc(C)c(NC(=O)CSc2c3c(nc4ccc(Cl)cc24)CCCC3)c1 | -8.1%[59 µM] | . | -4.6% | . | . | . |
| Cc1ccc(Cn2cc3c(n2)-c2c(oc(C(=O)Nc4ccc(F)cc4F)c2C)CC3)cc1 | 1.1%[59 µM] | 0.3%[46 µM] | -6.0% | . | . | . |
| CSc1sc(C(=O)N(C)C)c2c1S(=O)(=O)N(C)c1ccccc1-2 | 17.1% | . | -1.5% | 5.0% | . | 14.1% |
| CCCCC(CC(O)COCC(C)C)C(=O)NNC(=S)Nc1ccccc1 (stereo unspecified) | 8.91µM* | -12.9% | -18.5% | -1.5% | 10µM* | 7.5% |
| CCC(CC(C)(C)O)C(=O)NNC(=S)Nc1ccccc1 (stereo unspecified) | -14.9% | . | -11.1% | -11.7% | 25.1µM* | 7.3% |
| C=CCNC(=S)NNC(=O)C(CCCC)CC(C)O (stereo unspecified) | 2.4%[59 µM] | -2.3% | -6.0% | 4.2% | 1.4% | 7.2% |
